Consider 1 molecule from patent publication US10980754B2, “Anti-fungal compounds” (SAINT LOUIS UNIVERSITY, priority 2016, dated 2021).

A short description of series [1]: Cytotoxicity in hepatoma cells (MTS). The note with it: human.
Series [2] relates to C. neoformans var grubii, KN99. Nature of the series: Inhibition of C. neoformans growth, limiting dilution assay (MIC). The format is cell-based. The note with it: Cryptococcus neoformans.

SMILES strings stand for the structures. Converted amounts (≈) assume the structure as drawn.

In series [1], `O=c1cccccc1S` [Compound 363] came in with a cytotoxic concentration (CC50) at 72 h of 21 µM. In addition, inhibition of growth in series [2] (MIC) required 0.2 µM (≈ 0.0276 µg/mL).

The CC50 is the concentration that lowers cell viability or growth by half. A lower CC50 goes with greater toxicity to the cells. The term MIC denotes the lowest concentration that inhibits growth of the organism. High values mean a need for much substance, low ones inhibition by little substance.
